# PubChem BioAssay AID687043 (Milwaukee Institute for Drug Discovery, 2013)
# The entries are a selection whose mix differs from that of the whole data set. Some of these compounds have results that are not shown, active ones among them. The source made the active and inactive calls.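 The calls were made as follows: active = inhibition above the average over every tested compound plus 3 SD (cut at about 40% in these data); inactive = the rest.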
# Tested on: Hepatitis C virus NS3 helicase
# Assay: HCV NS3 helicase inhibitors, primary screen, biochemical, fluorescence polarization, ChemBridge library (AID 687043)
# Conditions: NS3h Cy5-dT15 DNA binding, at 100 µM, hits give high values
row,SMILES,inhibition
1,COc1ccc(OC)c(C=C(C#N)C#N)c1,inactive: 11.4%
